Sequences of proteins named here, by UniProt entry; tags and fusion partners are left off.
UniProt P21554, whole entry: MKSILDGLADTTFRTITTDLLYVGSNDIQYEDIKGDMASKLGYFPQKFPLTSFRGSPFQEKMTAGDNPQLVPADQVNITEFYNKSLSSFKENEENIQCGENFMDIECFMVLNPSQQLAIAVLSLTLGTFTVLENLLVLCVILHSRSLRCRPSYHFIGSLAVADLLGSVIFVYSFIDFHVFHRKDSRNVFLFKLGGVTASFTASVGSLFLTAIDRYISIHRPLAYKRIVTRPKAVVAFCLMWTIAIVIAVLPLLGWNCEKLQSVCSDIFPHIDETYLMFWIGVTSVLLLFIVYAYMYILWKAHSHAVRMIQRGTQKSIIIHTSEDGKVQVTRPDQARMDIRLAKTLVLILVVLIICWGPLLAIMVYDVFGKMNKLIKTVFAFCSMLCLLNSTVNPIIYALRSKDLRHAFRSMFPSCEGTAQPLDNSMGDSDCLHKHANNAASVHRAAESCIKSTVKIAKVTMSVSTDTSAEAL

According to patent US9926275B2 (priority 2013, dated 2018):

Assays:
[1] = target: T1, CB1 receptor (Homo sapiens, UniProt P21554); test: DiscoveRx HitHunter cAMP XS+ assay in cAMP Hunter cell line, allosteric modulation of CP55,940 response; assay type: cell-based; conditions: cAMP EC50 nM
Method: Cell Handling: cAMP Hunter cell lines were expanded from freezer stocks in T25 flasks according to standard procedures and maintained in selective growth media prior to assay. Once it was established that the cells were healthy and growing normally, cells were passaged from flasks using cell dissociation reagent buffer and seeded into white walled clear bottom 384-well microplates for compound profiling. For profiling, cells were seeded at a density of 10000 cells per well in a total volume of 20 μL and were allowed to adhere and recover overnight prior to compound addition. Cells were treated the following day using the protocols shown below. cAMP modulation was determined using the DiscoveRx HitHunter cAMP XS+ assay.
Media was aspirated from cells and replaced with 10 μL 1:1 HBSS/Hepes: cAMP XS+ Ab reagent. Agonist (CP55,940) dose curves were performed to determine the EC20 value for the testing with the compounds of the present technology. […] EC20 agonist concentration was determined directly from agonist dose curve. […]
Signal Detection: After appropriate compound incubation, assay signal was generated through incubation with 20 μL cAMP XS+ED/CL lysis cocktail for one hour followed by incubation with 20 μL cAMP XS+EA reagent for three hours at room temperature. Microplates were read following signal generation with a PerkinElmer Envision™ instrument for chemiluminescent signal detection. […]

[2] = target: T1, CB1 receptor; test: β-arrestin recruitment in CNR1 PathHunter cell line, allosteric modulation of CP55,940 response; assay type: cell-based; conditions: β-arrestin EC50 nM
Method: For allosteric determination, cells were preincubated with compound followed by agonist challenge at the EC20 concentration of the agonist. 5 μL of 4× compound was added to cells and incubated at 37° C. for 30 minutes. 5 μL of 4× EC20 agonist was added to cells and incubated at 37° C. for 30 minutes.
Data Analysis: Dose curves were plotted using GraphPad Prism or Activity Base. The percentage activity is calculated using the following formula: % Activity=100%×(1−(mean RLU of test sample−mean RLU of MAX control)/(mean RLU of vehicle control [EC20 for PAM]−mean RLU of MAXcontrol).
Agonist (CP55,940) dose curves were performed for the CNR1 PathHunter and cAMP Hunter cell lines. Data shown was normalized to the maximal and minimal response observed in the presence of control ligand and vehicle respectively. The cAMP assay was performed in the presence of 20 μM forskolin (EC80).
In Vitro Evaluation: The in vitro evaluation of the covalent allosteric modulators was performed using as described previously.

O=C(Nc1ccc(Cl)cc1)Nc1cccc(-c2cccc(N3CCCC3)n2)c1 [Compound 10a, 1-(4-Chlorophenyl)-3-(3-(6-(pyrrolidin-1-yl)pyridin-2-yl)phenyl)urea]
EC50 [1]: 231 nM | EC50 [2]: 27 nM
